# Measured affinities in a library of Ab-14 heavy chain variants

The measurements come from Li et al. 2023 (doi:10.1038/s41467-023-39022-2) through the FLAb antibody collection.

The target is the same throughout: PDVDLGDISGINAS, from the HR2 region of SARS-CoV-2 spike.

Each scFv is VH, the linker GGGGSGGGGSGGGGS, VL, as in the parent Ab-14, and differs from it in the CDRs of the heavy chain only.
VH: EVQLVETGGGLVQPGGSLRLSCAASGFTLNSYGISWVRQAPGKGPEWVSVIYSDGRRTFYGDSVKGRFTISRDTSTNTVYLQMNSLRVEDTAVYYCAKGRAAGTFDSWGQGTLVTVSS
VL: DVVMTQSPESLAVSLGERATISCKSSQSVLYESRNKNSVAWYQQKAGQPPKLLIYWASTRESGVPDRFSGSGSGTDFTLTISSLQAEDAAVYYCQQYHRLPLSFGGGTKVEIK

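The parent was found by panning a naive human phage display library on the peptide. The variants were designed computationally from a first round of random CDR variants and then made and measured. Group labels follow the data file (Ctrl: baseline library sampled from a position-specific scoring matrix, with some repeated check sequences; Rand: our label for a block that the file lists under HC and that is probably the random mutants of the ten best first-round binders; En: ensemble of fine-tuned language models; GP: Gaussian process model; GPLM: also part of the Gaussian process libraries; HC: hill climbing; Gen: genetic algorithm; Gibbs: Gibbs sampling; a sequence that several methods proposed may carry one label only). The scFvs were displayed on barcoded MATa yeast, the peptide on MATalpha yeast. Binding brings cells together so that they mate, and sequencing counts the barcode pairs among the diploids. Scores were corrected for input abundance and mapped to Kd with protein pairs of known affinity run in the same pool. The assay was run in six technical replicates.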

The parent's heavy chain CDRs are GFTLNSYGIS, VIYSDGRRTFYGDSVK, GRAAGTFDS; each variant's own CDRs replace them letter for letter. Variants here have at most six changes. Affinities are written as log10 Kd with Kd in nM; a lower number is a better binder. Averages over replicates are reported, and they cover detected replicates only. An entry "no signal" has no value in the source: the pair was not observed among the diploids in any replicate. This suggests poor binding but is not conclusive. Order: sorted from the lowest average up, undetected variants last. In the paper, a design with two or fewer of six values counts as a poor binder.

- GFDLNEYGIS, VIYADGQRTFYADSVK, GNAAGTFDS [En_HC] -> -0.60 (6 of 6 replicates)
- GFDLNSYGIS, VIYSDGRRTFYGDSVK, GRTAGTFDD [GPLM_Gen] -> -0.58 (6 of 6 replicates)
- GFTLNEYGIS, VIYSDGERTFYTDSVK, GKLAGTFDS [Ctrl] -> -0.33 (6 of 6 replicates)
- GFGLNSYGIH, VIYSDGRRTFYGDSVK, GREAGTFDQ [Ctrl] -> -0.03 (1 of 6 replicates)
- GFTLNSYGIS, VIYSDGRRTFYADSVK, GQEAGTFDT [GPLM_Gibbs] -> -0.01 (6 of 6 replicates)
- GFTLNSYGIS, VIYSDGRRTFYTDSVK, GAEAGTFDS [GP_HC] -> 0.04 (6 of 6 replicates)
- GFTLNEYGIS, VIYSDGRRTMYGDSVK, GRQAGTFDS [GPLM_Gen] -> 0.06 (6 of 6 replicates)
- GFDLNSYGIS, VIYSDGRRTFYLDSVK, GRNAGTFDS [GP_Gen] -> 0.06 (6 of 6 replicates)
- GFTLNEYGIS, VIYSDGRRTFYGDSVK, GRIAGTFDS [GPLM_Gen] -> 0.10 (6 of 6 replicates)
- GFTLNEYGIS, VIYSDGRRTFYTDSVK, GHAAGTFDL [GP_HC] -> 0.11 (6 of 6 replicates)
- GFELNEYGIS, VIYSDGRRTFYADSVK, GRMAGTFDS [GP_Gen] -> 0.15 (6 of 6 replicates)
- GFELNSYGIS, VIYSDGRRTFYGDSVK, GTTAGTFDV [GP_Gibbs] -> 0.32 (6 of 6 replicates)
- GFSLNSYGIS, VIYSDGKRTFYGDNVK, GQAAGTFDS [GP_Gibbs] -> 0.40 (6 of 6 replicates)
- GFSLNSYGIS, VIYSDGRRTAYGDQVK, GRAAGTFDS [GP_Gen] -> 0.46 (6 of 6 replicates)
- EFSLNSYGIS, VIYSDGRRTFYSDSVK, GRTAGTFDS [GP_Gibbs] -> 0.46 (6 of 6 replicates)
- GFSLNSYGIS, VIYSDGRRTFYVDSVK, GNVAGTFDS [GPLM_Gibbs] -> 0.51 (6 of 6 replicates)
- GFELNSYGIS, VIYSDGRRTFYADSVK, GNAAGTFDS [GPLM_Gen] -> 0.57 (6 of 6 replicates)
- GFELNSYGIS, VIYSDGRRTFYHDSVK, GQTAGTFDS [GP_Gen] -> 0.64 (6 of 6 replicates)
- GFDLNSYGIS, VIYSDGRRTFYADSVK, GWMAGTFDS [GP_Gibbs] -> 0.71 (6 of 6 replicates)
- GFDLNTYGIS, VIYSDGRRTFYGDSVK, GQAAGTFDR [GP_Gibbs] -> 0.77 (6 of 6 replicates)
- GFTLNEYGIS, VIYSDGRRTFYADSVK, GHAAGTFDN [GP_HC] -> 0.81 (5 of 6 replicates)
- GFTLNSYGIS, VIYSDGRRTFYGDSVK, GREAGTFDS [Ctrl+GPLM_Gen] -> 0.94 (6 of 12 replicates)
- GFHLQSYGIS, VIYSDGRRTFYGDSVK, GRAAGTFDS [Ctrl] -> 1.00 (6 of 6 replicates)
- GFELNEYGIS, VIYSDGRRTFYGDSVK, GHAAGTFDF [GP_Gibbs] -> 1.00 (4 of 6 replicates)
- GFTLNSYGIS, VIYSDGKRTFYGDSVK, GEAAGTFDS [Ctrl+GPLM_Gibbs] -> 1.15 (10 of 12 replicates)
- GFTLNSYGIS, VIYSDGRRTFYHDSVV, GRLAGTFDS [Ctrl] -> 1.88 (5 of 6 replicates)
- GFTLNSYGIS, VIYSDGRRTFYGDSVK, GNHAGTFDS [Ctrl] -> 1.95 (4 of 6 replicates)
- GFTLNSYGIS, VIYADGRRTFYGDSVK, GHAAGTFKM [GP_HC] -> 2.22 (1 of 6 replicates)
- GFDLNSYGIS, VIYSDGRRTFYQDSVK, GKTAGTFDC [GP_Gibbs] -> 2.72 (5 of 6 replicates)
- GFDLNSYGIS, VIYSDGRRTFYSDSVK, LRAAGTFDS [Ctrl] -> 2.78 (6 of 6 replicates)
- GFTLNSYGIS, VIYSDARRTSYADSVK, GRAAGWFDS [Ctrl] -> no signal (0 of 6 replicates)
- GFDLNSYGIS, VIYSDGRKTFYGDSVK, DRAAGTFSS [Ctrl] -> no signal (0 of 6 replicates)
- GFTLNSYGIS, VIYSDGVRTFYSDSVK, GRAAVTFDS [GP_HC] -> no signal (0 of 6 replicates)
- GFSLNSYGIS, VIYSDGRRTFYADSVK, GREAGIFDS [GPLM_Gen] -> no signal (0 of 6 replicates)
- GFDLNSYGIS, VIYSDGRRTFYGDSVK, GITAGTFDS [GP_Gen] -> no signal (0 of 6 replicates)
- GFPLNSYGPS, VIYSDGRRTFYDDSVK, GMLARTFDS [Rand] -> no signal (0 of 6 replicates)
- QFSLNSYGIS, VIYSDGRRTFYSDDVK, GRAAGFFDS [Ctrl] -> no signal (0 of 6 replicates)
- GFTLNEYGIS, VIYSDGRRTFYWDSVK, GRAAVTFDL [GP_HC] -> no signal (0 of 6 replicates)
- GFTLNEYGIS, VIYSDGRKTFYGDSVK, WRAAGTFDS [Ctrl] -> no signal (0 of 6 replicates)
- GFTLNSYGIS, VIYSDGRRTHYGDSVK, GRSAGTFHS [Ctrl] -> no signal (0 of 6 replicates)
- IFTLNEYGIS, VIYGDGRRYFYGDSVK, GRAAVTFDQ [Rand] -> no signal (0 of 6 replicates)
- GFNLNSYGIS, VIYSDGRRTFYGDSVK, GRAAGTFDC [Ctrl] -> no signal (0 of 6 replicates)
- GFTLNSYGIS, VIYSDGRRTFYEDAVK, GFAAGTFDS [Ctrl] -> no signal (0 of 6 replicates)
- GFTLNSYGIS, VIYSDGRRNFYTDSVK, GRNAGTVDQ [Ctrl] -> no signal (0 of 6 replicates)
- GFTLNCYGIS, VIYSDGQRTFYGDSVK, GRRAGTFDS [Ctrl] -> no signal (0 of 6 replicates)
- GFTLNSYGQS, VIYADGRRGFYGDSVK, GRAAGLNKS [Rand] -> no signal (0 of 6 replicates)
- GFDLNSYGIS, VIYSDGRRTFYGDSVK, GRNAGTFWS [GP_HC] -> no signal (0 of 6 replicates)

Again, the first 7 entries without any signal:

* GFTLNSYGIS, VIYSDARRTSYADSVK, GRAAGWFDS [Ctrl]: no signal (0 of 6 replicates)
* GFDLNSYGIS, VIYSDGRKTFYGDSVK, DRAAGTFSS [Ctrl]: no signal (0 of 6 replicates)
* GFTLNSYGIS, VIYSDGVRTFYSDSVK, GRAAVTFDS [GP_HC]: no signal (0 of 6 replicates)
* GFSLNSYGIS, VIYSDGRRTFYADSVK, GREAGIFDS [GPLM_Gen]: no signal (0 of 6 replicates)
* GFDLNSYGIS, VIYSDGRRTFYGDSVK, GITAGTFDS [GP_Gen]: no signal (0 of 6 replicates)
* GFPLNSYGPS, VIYSDGRRTFYDDSVK, GMLARTFDS [Rand]: no signal (0 of 6 replicates)
* QFSLNSYGIS, VIYSDGRRTFYSDDVK, GRAAGFFDS [Ctrl]: no signal (0 of 6 replicates)

Values of this round are not directly comparable with the first-round values of the same sequences. A sequence that the file lists under several names has all its replicates pooled. Three control strains display no target. For all heavy chain designs, 1% of the pairings with them gave a signal, with a median of 2.08 and one signal in twenty below 0.84, so weak values seen in few replicates may be background. Of ten entries with the parent sequence, four were seen in most replicates (averages 0.34 to 2.37), three in one and three in none, so single entries are noisy.